# Apparent affinities of Ab-14 variants for a coronavirus HR2 peptide

Source: Engelhart et al. 2022 (doi:10.1038/s41597-022-01779-4), MIT Lincoln Laboratory and A-Alpha Bio; data file from the FLAb repository.

Target: peptide PDVDLGDISGINAS, taken from heptad repeat 2 (HR2) of SARS-CoV-2 spike.

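The parent was found by panning a naive human phage display library on the peptide. In library AAYL50, one, two or three CDR residues were substituted; doubles and triples were drawn at random. The scFvs were displayed on barcoded MATa yeast, the peptide on MATalpha yeast. Mating (16 h, 30 °C) was followed by selection of diploids and sequencing of their barcodes. Each replicate has its own calibration line, from reference interactions of the BCL2 family. Each pool was mated in three replicate cultures.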

Parent scFv Ab-14: VH joined to VL by three GGGGS repeats. Changes lie in the light chain CDRs alone.
VH: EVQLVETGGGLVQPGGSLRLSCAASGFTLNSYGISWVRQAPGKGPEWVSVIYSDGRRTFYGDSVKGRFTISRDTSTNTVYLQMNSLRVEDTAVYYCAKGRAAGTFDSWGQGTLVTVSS
VL: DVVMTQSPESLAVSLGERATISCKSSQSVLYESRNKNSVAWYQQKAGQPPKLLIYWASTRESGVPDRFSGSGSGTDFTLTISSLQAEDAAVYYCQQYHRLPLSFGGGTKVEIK

Substitutions are numbered in sequence along the VL above, starting at 1 (not Kabat).
Scale: log10 of Kd in nM, estimated from mating counts; low values are strong binders.
"nd" means that the variant was in the library but no mating with the target was seen in that replicate; the authors take this as a sign of poor binding, and no number exists.
Empty control strains, which show no peptide, gave a signal in 18% of pairings with library AAYL50; the median was 4.19 and 95% of these signals were weaker than 2.99. No background was subtracted. For each scFv, signals with the empty controls are counted beside the result.

The variant Y31I/S58Q/P101M showed 1.05, 1.23, 1.24 (controls 0 of 9).
The variant V29S/L30I/Q95F showed nd, nd, nd (controls 1 of 9).
The variant S28W/N37F/V39W showed nd, nd, nd (controls 2 of 9).
The variant E32M/E61I/S62T showed 2.52, 2.24, 3.12 (controls 2 of 9).
The variant Q27H/T59S/Y97Q showed 2.58, 2.55, 2.85 (controls 1 of 9).
The variant S28L/S33K/S62K showed 3.14, 2.66, nd (controls 1 of 9).
The variant S58Q/Q95F/Q96L showed 1.47, 1.90, 1.40 (controls 1 of 9).
The variant S28M/R34G/A57D showed 1.24, 1.33, 1.64 (controls 5 of 9).
The variant K36D/S38Y/H98F showed 1.23, 1.23, 1.70 (controls 0 of 9).
The variant Q27K/W56E/T59G showed 0.24, 0.54, 0.36 (controls 2 of 9).
The variant K24M/W56I/T59G showed nd, nd, 5.48 (controls 3 of 9).
The variant S58T/Q96H/P101G showed 1.90, 1.93, 2.11 (controls 3 of 9).
The variant V39M/Q95G/L100S showed nd, 3.69, nd (controls 3 of 9).
The variant A40K/S58Y/L102N showed nd, nd, nd (controls 1 of 9).
The variant Q27D/N35M/Y97E showed 2.90, 3.28, 3.22 (controls 5 of 9).
The variant E32R/S33R/L102R showed 4.84, nd, nd (controls 2 of 9).
The variant W56E/L100C/P101L showed nd, nd, nd (controls 0 of 9).
The variant E61T/H98P/P101H showed 2.05, 2.41, 1.95 (controls 0 of 9).
The variant E32R/R34Q/S62Q showed nd, 5.07, nd (controls 2 of 9).
The variant K24A/A57D showed 5.06, nd, nd (controls 4 of 9).
The variant W56Y/Q96D/P101I showed nd, nd, nd (controls 0 of 9).
The variant S38L/W56V showed nd, nd, nd (controls 0 of 9).
The variant Y31N/K36P/S38G showed 1.36, 1.28, 1.47 (controls 1 of 9).
The variant R60S/S62I/L102G showed 3.22, 3.19, 3.19 (controls 4 of 9).
The variant N35W/N37Y/A57E showed 3.45, nd, nd (controls 0 of 9).
The variant K36F/N37Q showed 1.07, 1.34, 1.07 (controls 0 of 9).
The variant V29M/W56Q/S58P showed 6.36, 4.23, nd (controls 5 of 9).
The variant E32A/S33Q/S38Q showed 2.76, 2.64, 3.38 (controls 2 of 9).
The variant S28F/V29P/R99F showed 2.06, 2.09, 2.76 (controls 1 of 9).
The variant K24N/V39P/L100R showed nd, 4.39, nd (controls 1 of 9).
The variant S25V/S26L/N35I showed 0.66, 0.82, 0.77 (controls 1 of 9).
The variant S58I/T59N showed nd, nd, nd (controls 2 of 9).
The variant K24M/R60Y/R99A showed nd, nd, nd (controls 3 of 9).
The variant Q27E/S28A/Q95F showed nd, nd, nd (controls 3 of 9).
The variant S28Q/L30Y/R60S showed nd, nd, 3.39 (controls 1 of 9).
The variant S33E/Q96H showed 1.36, 1.45, 1.70 (controls 1 of 9).
The variant K36G/W56M/Q95Y showed nd, nd, nd (controls 1 of 9).
The variant Q27R/S62E/L102F showed 0.70, 1.07, 0.90 (controls 4 of 9).
The variant P101T/L102R/S103I showed 3.25, 1.69, 3.24 (controls 1 of 9).
The variant R60V/Y97G showed nd, nd, nd (controls 0 of 9).
The variant N35K/Q96I showed 5.26, nd, nd (controls 0 of 9).